Values of other authors, collected in US20130122099A1, “POLYETHYLENE GLYCOL-COATED SODIUM CARBONATE AS A PHARMACEUTICAL EXCIPIENT AND COMPOSITIONS PRODUCED FROM THE SAME” (priority 2008, published 2013).

Which pKa does the source give for Cc1nc2n(c(=O)c1CCN1CCC(c3noc4cc(F)ccc34)CC1)CCCC2 [risperidone] here?
Its pKa is 7.9.
